According to paper PMC9073949 (Crystal Growth & Design, 2022):

Test: Insulin crystallization kinetics (desupersaturation, induction time, crystal yield)
Format: physicochemical
Details: pH 6.2, initial supersaturation ratio increased from 5.6 to 10.0
Description: Precise temperature control was achieved by using incubators held at a constant temperature. Citric acid buffer (0.1 M) was prepared at different pH levels by varying the ratio between citric acid and tri-sodium citrate. The pH was determined using a Jenway 4330 pH and conductivity meter (Jenway, UK) with an instrument resolution of around ±0.02 pH units. Zinc sulfate (ZnSO4), zinc chloride (ZnCl2), or zinc acetate (ZnAc) were dissolved in citric acid buffer as a zinc salt stock solution. […] Each experimental condition was repeated multiple times, and the error bars represent the deviation between these repetitions. The desupersaturation (crystallization occurs and the solution concentration decreases) was monitored by measuring the UV–vis absorption at a wavelength of 280 nm with a NanoDrop One^c microvolume UV–vis spectrophotometer (Thermo Fischer Scientific, USA). A sample as small as 10–20 μL was withdrawn from the crystallizer (Eppendorf tube) and was centrifuged (6000 rpm, 10–20 min). […] An extinction coefficient of 1.04 mL·mg^–1·cm^–1 was utilized.[32] Multiple dilutions for every sample were made to minimize dilution errors. […]
The crystal yield was calculated to evaluate the performance of crystallization. […]

Substance: Human insulin
- reduction in induction time: 75%
